These are literature values, as cited in US9074014B2, “Analogues of glucose-dependent insulinotropic polypeptide” (Ipsen Pharma S.A.S., priority 2008, dated 2015).

For the series the following is noted: unmodified GIP; Said and Mutt, 1970; cited from earlier work.

For the substance “Glucose-dependent insulinotropic polypeptide [GIP]”, the in vivo half-life entry was “about 2 minutes”.
